# BindingDB's records for PubMed 38653067 (Cairo University)
# Target: Carbonic anhydrase 2 (Homo sapiens, UniProt P00918)
compound,measurement,value
CN1C(=O)C(=C2C(=O)Nc3ccccc32)S/C1=N/c1ccc(S(N)(=O)=O)cc1,Ki,0.041 µM
